Results taken from the OPERA property sets (Mansouri et al. 2018).

Row | Structure (SMILES) | logP
1 | Cc1c([N+](=O)[O-])cccc1[N+](=O)[O-] | 2.1
2 | Cc1ccc([N+](=O)[O-])c([N+](=O)[O-])c1 | 2.08
